Source: patent US20080305092A1, “Methods of treating autoimmune disease via CTLA-4IG” (THE REGENTS OF THE UNIVERSITY OF MICHIGAN, priority 1993, published 2008)

System: Daudi
Test: Cytotoxicity of activated cells against Daudi
Format: cell-based, human
Settings: anti-CD3 triggered T cells
Method: Cytotoxicity mediated by anti-CD3 and anti-CD28 triggered PBL. The cytotoxicity of anti-CD3 activated PBL after 7 days of culture in the presence of low doses of IL-2 or anti-CD28 was tested. In this set of experiments, the ability of CD28 to induce increases in lymphokine production to substitute for previously reported immune augmented effects of in vitro T cell treatment with IL-2 has been examined. One lytic unit is equivalent to 20% lysis of 5×10^3 target cells per 1×10^6 effector cells as discussed in Press, H. F. et al., J. Clin. Immunol. 1:51-83 (1981). Various targets, including Daudi and K562, were tested.
In 5 different subjects, PBL were compared with T cells (E^+) in their ability to kill Daudi, K562, and BSB cells 8 days after being activated with OKT3. These experiments were performed in X-Vivo 10 supplemented with 5% human serum (HS). The mean cytotoxicity in 5 normal subjects using PBL directed at Daudi, K562, and BSB were 15.0, 7.4, and 9.2 LU, respectively. In T cells from the same 5 subjects, the mean cytotoxicity directed at Daudi, K562, and BSB were 14.3, 7.7, and 9.3 LU, respectively.
[…] In order to test for optimal cytotoxicity, T cells were cultured with anti-CD3 and IL-2 for 31 days and tested at weekly intervals for cytotoxicity against Daudi and K562. […] Cytotoxicity was a strong function of culture duration however, with <0.1, 24, 3.5, 0.5, 1.0 LU at 0, 8, 15, 22, and 29 days of culture. Similar results were found when Daudi was the target, with <0.01, 23, 5, 2, and 5 LU at 0, 8, 15, 22, and 29 days of culture.
Cytotoxicity induced by soluble or immobilized OKT3. In 7 experiments, cytotoxicity mediated by T cells after activation was compared with soluble or immobilized OKT3. Both methods induced cytotoxicity directed at Daudi and K562. Soluble OKT3 activated T cells mediated a mean cytotoxicity of 27 LU (SD-18) directed at Daudi and a mean cytotoxicity of 21 LU (SD-16) directed at K562. Immobilized OKT3 activated T cells mediated a mean cytotoxicity of 22 LU (SD-16) directed at Daudi and a mean cytotoxicity of 12 LU (SD-8) directed at K562. These experiments were performed with E^+ cells in RPMI 1640 supplemented with 10% fetal bovine serum (FBS). Cytotoxicity was assessed 7 to 8 days after triggering with soluble (10 ng/ml) or immobilized (2 μg/ml) OKT3.
Effects of IL-2 concentrations. The dose of IL-2 was titrated after establishing the optimal time of OKT3 activation. […] Proliferation, as measured by tritiated thymidine incorporation after 3 days of culture, remained constant as IL-2 was titrated in this range. In contrast, cytotoxicity varied with the dose of IL-2, and was maximal at lower doses of IL-2 (lytic units with Daudi targets were 28, 9, 8.5, 9 and 4.8 LU after culture in 30, 150, 300, 600 and 6000 IU/ml of rIL-2).
Bone marrow mononuclear cells (BMMNC) as a source of CTC after anti-CD3 and anti-CD28 treatment. To test whether BMMNC might serve as a source of T cells for therapy in patients with malignancies, BMMNC were cultured in X-Vivo 10 medium after OKT3 and IL-2 or anti-CD28 stimulation. Although the BMMNC population initially contained only 25% CD3^+ cells, proliferative and cytotoxic responses were excellent after 2 weeks of culture. T cells expanded more than 40-fold after CD3 and IL-2 stimulation and cytotoxicity was between 5 and 12 LU at 8 to 15 days of culture when tested against Daudi and K562. […]

Substance: rIL-2: recombinant interleukin-2
- lytic units with Daudi targets (30 IU/ml of rIL-2): 28 LU
- lytic units with Daudi targets (150 IU/ml of rIL-2): 9 LU
- lytic units with Daudi targets (300 IU/ml of rIL-2): 8.5 LU
- lytic units with Daudi targets (600 IU/ml of rIL-2): 9 LU
- lytic units with Daudi targets (6000 IU/ml of rIL-2): 4.8 LU
